Results: publication PMC13065467, “Assembly and phosphoregulatory mechanisms of the budding yeast outer kinetochore KMN complex” (The Journal of Cell Biology, 2026)

Biological target: T1, Knl1c:Mis12c^Mtw1c complex K^HB-RWDM^Dsn1Δ257 (Knl1^Spc105 residues 1–444 and Dsn1 residues 1–257 deleted) (S. cerevisiae, UniProt P53148 445-917; Q04431 1-385; P40568 258-576; P39731 1-289; P47149 1-201; …)
T1 construct: Knl1^Spc105_HB-RWD: Knl1^Spc105, S. cerevisiae S288c, residues 445-917; ZWINT^Kre28, S. cerevisiae S288c; no truncation stated; Mis12^Mtw1, S. cerevisiae S288c; wild-type, no truncation stated; Nnf1, S. cerevisiae S288c; Nsl1, S. cerevisiae S288c; source: High-5 insect cells (two baculoviruses), purified (Strep-Tactin, SEC); copies: + + + + +
Assay: ITC

Binder: PHYIQRTRERKKEIGSQRGRRLEMLASGSAW (N-terminal acetylation; C-terminal amidation) [Dsn1^228–254,S240E,S250E peptide]
- Kd: 6 µM
